Test results as given in article PMC9566605 (Cancer cell, 2022).

Tested on: H-2K^b associated peptides of EG.7 cells
Format: cell-based, mouse
Conditions: 2.5 mM PNT on ice 5 min; 30 minutes post-treatment

## O=NOO [PNT, peroxynitrite]
  peptides with greater than 2-fold decrease in yield relative to untreated cells: about 20%
